# Hits are enriched below; roughly 2.5% of the tested compounds scored in any of these assays.
# ClpP mod: qHTS Assay for Activators of ClpP; purified B. subtilis ClpP, FRET peptide cleavage, 20 min; Potency, µM (series often up to 57.5 µM), for the others: at the highest dose activity change, negative = active; hit rate 1.9% among 340,000; active = well fitted falling curve with a large enough effect; inconclusive = small, poorly fitted or top-dose-only effect; inactive = no such curve, though single readings can be large or run the other way; note: potency is the fitted concentration of half-maximal effect; the source files actives as falling curves though it sought activators and does not explain the sign; nearly all actives have a fitted effect of over 65% in size
#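 FRET quenching reversal measured ClpP activation: 10 microg/mL B. subtilis ClpP at pH 8 with the FRET-FV decapeptide, read at 430 nm after 320 nm excitation. The 20-min minus 0-min signal was scaled between DMSO/no-enzyme wells and ADEP (5.8 microM final).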
# Apoferritin bind: candidate novel general anesthetic via apoferritin binding | apoferritin/1-aminoanthracene competitive binding, fluorescence | P02791 | hit rate 0.074% among 350,000 | Potency, µM (titrated, usually from 77.5 µM), inactives show at the highest dose activity change, negative = displacement, actives largely listed as inhibitors; note: potency is the fitted concentration of half-maximal effect; % is set by controls: 0 for no effect and ±100 for the full control effect; nearly all actives have a fitted effect of over 20% in size
#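 Horse-spleen apoferritin (10 uM) in 50% saturated 1-aminoanthracene in PBS was incubated 10 min at room temperature with compound. Fluorescence (ex 380, em 535 nm) was normalized to free and bound 1-AMA, with concentration-response fitted by a four-parameter Hill equation.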
# miR-21 FLuc: raises the signal of a miR-21 reporter | AID 2288 | 340,000 tested, under 10 active | Potency, µM (series often up to 38.3 µM), without a hit: at the highest dose reporter change, positive = more light | HeLa miR-21 FLuc reporter, luciferase, 48 h; active = well fitted rising curve with a large enough effect; inconclusive = small, poorly fitted or top-dose-only effect; inactive = no such curve, though single readings can be large or run the other way;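 further: % of control where 0% means no effect; miR-21 action dims this reporter so a rising signal means less miR-21 action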
#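 Luminescence from a firefly luciferase reporter carrying a miR-21 binding site downstream, stably expressed under a CMV promoter in HeLa cells that make miR-21 endogenously, reports miRNA modulation after 48 h compound exposure up to approximately 40uM final.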
# TrxR1 substrate: is turned over as a substrate by rat TrxR1. O89049. purified TrxR1 substrate turnover, NADPH consumption readout. Potency, µM (doses to about 114 µM), inactives show at the highest dose activity change, negative = substrate turnover. hit rate 0.01% among 390,000. AID 588456; note: potency is the fitted concentration of half-maximal effect; % is set by controls: 0 for no effect and ±100 for the full control effect; nearly all actives have a fitted effect of over 50% in size
#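 Rat TrxR1, dispensed at 90 nM, was prereduced with 400 uM NADPH (final) for 5 min at ~22 deg C, then incubated with compound 15 min before 400 uM selenite. A first-read NADPH fluorescence drop versus no-compound background flagged substrates.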
# TrxR1 inh: blocks rat thioredoxin reductase 1; recombinant rTrxR1, NADPH fluorescence consumption, selenite substrate; Potency, µM (highest dose often 114 µM), without a hit: top-dose activity change, negative = inhibition, hits mostly inhibitors; hit rate 1% among 390,000; AID 588453; note: potency is the fitted concentration of half-maximal effect; % is set by controls: 0 for no effect and ±100 for the full control effect; nearly all actives have a fitted effect of over 65% in size
#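 Rat TrxR1 (90 nM in the dispensed reagent) was pre-reduced with 400 uM NADPH for 5 min at room temperature, then incubated with compound for 15 min. After 400 uM selenite was added, NADPH fluorescence (Ex 340/Em 450 nm) was followed for 8 min.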
# Numbers without * were called inactive; ? = inconclusive; . = no result; [ ] = dose if it differs, or a comment. Unless noted, calls come from the whole dose curve; as a rule, active = well fitted curve in the direction sought with a large enough effect; inconclusive = small, poorly fitted or top-dose-only effect, or another doubt; inactive = no such curve, though single readings can be large; an effect the other way counts as inactive or inconclusive.
[1] Cc1ccc(C)c(CN2C(=O)C3(c4ccccc42)N(c2ccc(Cl)cc2)C(=O)CS3(=O)=O)c1 (configuration not stated)
[2] Cc1ccc(-c2nc3cccnc3s2)cc1NC(=O)Cc1ccccc1
[3] O=C(Nc1cccc(OCc2cc(=O)n3ccccc3n2)c1)Nc1cccc(C(F)(F)F)c1
[4] c1ccc(CSc2nnc(-c3cccs3)o2)cc1
[5] CCSc1nnc(-c2cccs2)o1
Assay by compound | 1 | 2 | 3 | 4 | 5
ClpP mod | -0.6% | ? | -6.3% | -6.0% | 28.2µM*
TrxR1 inh | 24.0% | 7.3% | 17.2%[57.1 µM] | 8.3% | 18.3%[57.1 µM]
TrxR1 substrate | -4.3% | 2.3% | -4.3%[57.1 µM] | 7.3% | 27.0%[57.1 µM]
miR-21 FLuc | 4.8% | 3.6% | -22.5% | -53.6% | -28.0%
Apoferritin bind | -1.9% | 41.5% | -8.8% | ? | -8.3%

[6] CCOc1ccc(-c2nnc(-c3ccccc3)o2)cc1
[7] CCCOc1ccc(-c2nnc(-c3cccs3)o2)cc1
[8] CCCCOc1ccc(-c2nnc(-c3ccncc3)o2)cc1
[9] CCOc1ccc(-c2nnc(-c3ccncc3)o2)cc1
[10] COc1ccc(Cl)cc1NC(=O)CSC1=Nc2ccccc2C2=NC(CC(=O)NCc3cccs3)C(=O)N12 (configuration not stated)
Assay by compound | 6 | 7 | 8 | 9 | 10
ClpP mod | 28.2µM* | 10µM* | 15.8µM* | ? | -7.1%
TrxR1 inh | 12.3% | 46.5%[57.1 µM] | -0.7% | -15.1% | -13.8%
TrxR1 substrate | 42.0% | 35.9%[57.1 µM] | 35.4% | 17.3% | -5.5%
miR-21 FLuc | -43.2% | -56.9% | -30.4% | -23.5% | 18.5%
Apoferritin bind | -0.3% | 6.7% | -7.7% | -13.6% | -7.5%

[11] COc1ccc(C(=O)c2cccc(C(=O)c3ccc(OC)c(C)c3)c2)cc1C
[12] COc1ccc(C(=O)c2ccc(OC)c(Br)c2)cc1Br
[13] N#Cc1nc(-c2ccco2)oc1NCCc1ccccc1
[14] COc1ccc(CCNc2oc(COc3ccc(F)cc3)nc2C#N)cc1
[15] CNc1oc(-c2ccco2)nc1C#N
Assay by compound | 11 | 12 | 13 | 14 | 15
ClpP mod | . | 1.2% | 28.2µM* | 0.2% | ?
TrxR1 inh | 12.3%[57.1 µM] | 39.8µM* | 0.4% | 6.3%[57.1 µM] | -3.5%
TrxR1 substrate | 0.2%[57.1 µM] | 0.6% | 49.3% | -10.8% | 127.2%
miR-21 FLuc | 1.7% | -5.6% | -48.6% | -1.5% | -8.2%
Apoferritin bind | 1.6% | -9.5% | -4.7% | -5.8% | -2.8%

# Filtered by structure, the entries above containing fluorine
[3] O=C(Nc1cccc(OCc2cc(=O)n3ccccc3n2)c1)Nc1cccc(C(F)(F)F)c1
[14] COc1ccc(CCNc2oc(COc3ccc(F)cc3)nc2C#N)cc1
Assay by compound | 3 | 14
ClpP mod | -6.3% | 0.2%
TrxR1 inh | 17.2%[57.1 µM] | 6.3%[57.1 µM]
TrxR1 substrate | -4.3%[57.1 µM] | -10.8%
miR-21 FLuc | -22.5% | -1.5%
Apoferritin bind | -8.8% | -5.8%

# Further structures follow.
[16] Cc1ccc(-c2nc(C#N)c(NCc3cccc4c3OCO4)o2)cc1
[17] COc1ccc(CCNc2oc(-c3ccco3)nc2C#N)cc1
[18] Cc1ccc(CNc2oc(-c3ccco3)nc2C#N)cc1
[19] N#Cc1nc(-c2ccccc2F)oc1NCCc1ccccc1
[20] O=C(c1ccc2c(c1)N(Cc1ccccc1F)C(=O)c1ccccc1S2(=O)=O)N1CCN(c2ccccn2)CC1
Assay by compound | 16 | 17 | 18 | 19 | 20
ClpP mod | 31.6µM* | 28.2µM* | 15.8µM* | 89.2% | -2.8%
TrxR1 inh | 21.5% | 8.0% | -7.5% | -24.2%[57.1 µM] | 23.3%
TrxR1 substrate | 41.7% | 66.4% | 57.0% | 116.3%[57.1 µM] | -3.6%
miR-21 FLuc | -52.2% | -20.9% | -31.1% | -56.3% | 24.9%
Apoferritin bind | 5.9% | 1.1% | 6.0% | -4.5% | -5.2%

[21] O=C(Nc1ccc2nc(-c3ccco3)[nH]c2c1)c1cccs1
[22] O=S(=O)(Nc1ccc(F)cc1F)c1ccc(-n2cccn2)cc1
[23] CC(C)c1nc2oc3c(=O)[nH]cnc3c2c2c1CCC2
[24] COCCNC(=S)N/N=C(\C)c1ccccc1O
[25] COCCNC(=S)N/N=C(\C)c1ccccc1OC
Assay by compound | 21 | 22 | 23 | 24 | 25
ClpP mod | -2.0% | -1.5% | 12.6µM* | ? | 2.82µM*
TrxR1 inh | 70.8µM* | 5.0% | -10.7% | ? | -17.8%
TrxR1 substrate | -10.8% | -9.2% | 12.7%[57.1 µM] | -11.1% | -7.9%
miR-21 FLuc | -39.1% | 0.8% | -2.4% | -20.1% | -6.5%
Apoferritin bind | -5.6% | -2.0% | -6.6% | -12.0% | -11.3%

[26] COc1ccc2c(c1)c1ncn(CCN3CCCCC3)c(=O)c1n2C
[27] COc1ccc2[nH]c3c(=O)n(CCN4CCOCC4)cnc3c2c1
[28] COc1ccccc1CCn1cnc2c3cc(C)ccc3n(C)c2c1=O
[29] CCOCCCn1cnc2c3cc(F)ccc3n(C)c2c1=O
[30] COc1ccc2c(c1)c1ncn(CCN3CCCC3)c(=O)c1n2C
Assay by compound | 26 | 27 | 28 | 29 | 30
ClpP mod | 15.8µM* | . | 35.5µM* | 4.0% | 31.6µM*
TrxR1 inh | 28.9% | 26.6% | 2.1% | 2.3% | 11.1%[57.1 µM]
TrxR1 substrate | 119.0% | 171.7% | 13.4% | 43.0% | 110.8%[57.1 µM]
miR-21 FLuc | -20.6% | -16.2% | 0.9% | -18.7% | -9.0%
Apoferritin bind | 3.6% | 2.1% | 0.6% | -7.1% | -9.7%

[31] Cc1ccc(C(=O)c2c(C)oc3c2C(=O)C(=O)c2ccccc2-3)cc1
[32] Cc1oc2c(c1C(=O)c1ccc(Cl)cc1)C(=O)C(=O)c1ccccc1-2
[33] Cc1cc(C)cc(NC(=O)C(CC(C)C)NC(=O)C2CCCCC2)c1 (configuration not stated)
[34] O=C(Cn1nnc(-c2ccccc2)n1)Nc1cccc(S(=O)(=O)N2CCCC2)c1
[35] CCC(NC(=O)c1ccccc1O)c1ccccc1 (configuration not stated)
Assay by compound | 31 | 32 | 33 | 34 | 35
ClpP mod | 1.3% | 0.4% | 1.9% | 31.6µM* | 31.6µM*
TrxR1 inh | 22.2%[57.1 µM] | 2.4% | 11.0% | -12.1% | 14.2%
TrxR1 substrate | ? | 79.4µM* | 6.5%[2.29 µM] | -12.5% | 47.9%
miR-21 FLuc | ? | -3.4% | -0.1% | . | -2.9%
Apoferritin bind | ? | -14.6% | -8.7% | . | -11.1%

# Quoted from above: compounds 34–35
[34] O=C(Cn1nnc(-c2ccccc2)n1)Nc1cccc(S(=O)(=O)N2CCCC2)c1
[35] CCC(NC(=O)c1ccccc1O)c1ccccc1 (configuration not stated)
Assay by compound | 34 | 35
ClpP mod | 31.6µM* | 31.6µM*
TrxR1 inh | -12.1% | 14.2%
TrxR1 substrate | -12.5% | 47.9%
miR-21 FLuc | . | -2.9%
Apoferritin bind | . | -11.1%

# Following part
[36] COC(=O)c1ccc([C@H]2Nc3ccc(S(=O)(=O)Nc4cccc(C)c4)cc3[C@H]3C=CC[C@H]32)cc1
[37] COC(=O)c1ccc([C@@H]2Nc3c(OC)ccc(C)c3[C@@H]3C=CC[C@@H]32)cc1
[38] COc1cccc(N(C(=O)CCl)C(C(=O)NCCc2ccccc2)c2cccs2)c1 (configuration not stated)
[39] COc1ccc(N(C(=O)c2ccco2)C(C(=O)NC2CCCCC2)c2cccs2)cc1OC (configuration not stated)
[40] COc1ccc(N(C(=O)CCl)C(C(=O)NCCc2ccccc2)c2cccs2)cc1Cl (configuration not stated)
Assay by compound | 36 | 37 | 38 | 39 | 40
ClpP mod | 1.1% | -6.1% | -0.4% | -2.1% | 0.6%
TrxR1 inh | ? | 56.2µM* | 14.1µM* | -5.7% | 14.1µM*
TrxR1 substrate | 4.2% | -0.1% | 1.0% | 26.2% | -7.8%
miR-21 FLuc | -2.6% | -10.2% | ? | -5.4% | ?
Apoferritin bind | ? | -15.7% | -1.7% | -12.3% | -8.9%

[41] Cc1ccc(NC(=O)c2cnc(SCC(=O)N3CCOCC3)n(C)c2=O)cc1C
[42] COc1ccccc1Nc1nc(N)nc(CN2CCCCCC2)n1
[43] COc1ccccc1Nc1nc(C)cc(C)n1
[44] COc1ccccc1Nc1cc(C)nc(Nc2ccccc2OC)n1
[45] COc1ccc(C2CC(=O)c3cc(-c4nc(-c5cccc([N+](=O)[O-])c5)cs4)c(=O)n(-c4cccc(C)c4)c3C2)cc1 (configuration not stated)
Assay by compound | 41 | 42 | 43 | 44 | 45
ClpP mod | -6.5% | -1.5% | 17.8µM* | -10.1% | 0.0%
TrxR1 inh | 20.7%[57.1 µM] | 14.1µM* | 27.7%[2.29 µM] | -3.6% | 8.9%
TrxR1 substrate | 2.4%[57.1 µM] | 7.0%[57.1 µM] | 3.7%[57.1 µM] | -0.4% | -2.7%
miR-21 FLuc | -24.1% | 1.7% | -7.2% | . | -6.5%
Apoferritin bind | -11.7% | -4.8% | -7.1% | . | -13.4%

[46] O=C(COC(=O)c1ccccc1NCCO)NCCC1=CCCCC1
[47] CC(C#N)(NC(=O)COC(=O)c1ccccc1NCCO)C1CC1 (configuration not stated)
[48] O=C(COC(=O)c1ccccc1NCCO)NCCc1ccccc1
[49] Cc1ccc(-n2nc(C)c(NC(=O)COC(=O)c3ccccc3NCCO)c2C)cc1
Assay by compound | 46 | 47 | 48 | 49
ClpP mod | 25.1µM* | 25.1µM* | 14.1µM* | 28.2µM*
TrxR1 inh | 41.9% | ? | -17.2% | ?
TrxR1 substrate | 184.2% | 238.3% | 189.8% | 140.3%
miR-21 FLuc | . | . | . | .
Apoferritin bind | . | . | . | .
